Results: publication PMC4945769 (British Journal of Pharmacology, 2016)
Read-outs that look alike come from different tables or passages of the source.

Target: T1, DPP1 (Homo sapiens, UniProt P53634)
T1 sequence (P53634 with tags, fused parts or gaps): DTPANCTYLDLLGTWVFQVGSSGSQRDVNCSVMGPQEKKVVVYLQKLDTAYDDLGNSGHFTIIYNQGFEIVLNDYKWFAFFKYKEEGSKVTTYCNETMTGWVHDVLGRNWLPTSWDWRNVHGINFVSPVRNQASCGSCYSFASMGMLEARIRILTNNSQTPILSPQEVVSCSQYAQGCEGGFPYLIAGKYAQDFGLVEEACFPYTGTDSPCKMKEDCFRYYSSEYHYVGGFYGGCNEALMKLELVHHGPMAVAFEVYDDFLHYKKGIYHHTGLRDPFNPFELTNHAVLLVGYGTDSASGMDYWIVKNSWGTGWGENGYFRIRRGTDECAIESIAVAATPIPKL
Experiment: DPP1 activity cell assay
Type: cell-based
Conditions: read-out: DPP1 IC50, corrected for PPB

IC50 (in vitro potency corrected for human PPB): 44 nM | IC50 (in vitro potency corrected for rat PPB): 67 nM
SMILES: N#Cc1ccc(-c2ccc(C[C@@H](C#N)NC(=O)C3(N)CCOCC3)cc2)cc1 [AZ2, (S)‐4‐amino‐N‐(1‐cyano‐2‐(4′‐cyanobiphenyl‐4‐yl)ethyl)tetrahydro‐2H‐pyran‐4‐carboxamide]
